Data on one substance can be found in US6258840A, “Analogues or derivatives of quercetin (prodrugs)” (Cobra Therapeutics Limited, priority 1996, dated 2001).

For orientation: Aqueous solubility means the concentration that dissolves in the medium under given conditions. A higher Aqueous solubility goes with a readily soluble substance.

For the data set the following is noted: water.

Regarding “3'/4'-((N-Carboxymethyl)carbamoyloxy)-3,4'(3'),5,7-tetrahydroxy-flavone, N-Methyl-D-glucamine salt”, the Aqueous solubility is above 10000 µg/mL.
